Experiments:
[1] = human, in vivo
[2] = system: metastatic pancreatic cancer patients; conditions: in vivo
Procedure: Multivariate analysis was performed to evaluate the effect of exposure on OS and PFS adjusting for potential confounding factors using Cox proportional hazard models with a forward selection technique. All baseline factors were initial candidates in the forward selection model. Only the most statistically significant variables were added to the final model after the forward selection process.
The effect of exposure on the incidence of selected adverse events (hearing and vestibular disorders, hepatic disorders, hyperglycemia, infusion reaction, neutropenia, rash and skin-related toxicity, thrombocytopenia, and venous embolic and thrombotic events) was summarized with descriptive statistics.
The effect of exposure on changes in selected laboratory values (aspartate transaminase, alanine transaminase, fasting glucose, total neutrophils, and platelets) was assessed by linear regression.

[3] = system: metastatic pancreatic cancer patients; experiment: Overall survival in baseline circulating biomarker subgroups of the phase 2 study; assay type: in vivo, human; conditions: plus gemcitabine
Source text: To establish the relationship between levels of these baseline markers and overall survival, a Cox proportional hazard model was used to calculate hazard ratios (HR) using normalized log transformed marker concentrations. This analysis tests the risk of death associated with a unit increase in the normalized log baseline biomarker and this risk is expressed as a hazard ratio. Because of the small sample size, it is difficult to dissect prognostic associations from relationships that are modified by treatment with ganitumab relative to placebo, i.e., predictive. This is because the addition of treatment effect adds a variable to the analysis that compromises the power of the test masking significant predictive relationships that may exist. However even a prognostic relationship identified in this analysis is important because it informs the hypothesized relationship between circulating bioavailable ligands and the adaptation of the tumor to IGF-1R dependent progression, and in turn sensitivity to inhibitors that block IGF-1R or downstream signaling pathways.
This allows a direct test of the predictive value of using these markers in a dichotomized way to predict OS in pancreatic cancer patients that are treated with inhibitors of IGF-1R.
To represent these relationships Kaplan-Maier plots were generated that show the OS for the high and low subgroups by plotting the fraction of patients in each sub-group that survive against time.

[4] = system: tumors in human subjects; conditions: in vivo

## Ganitumab
[1]
  Q (L/h), inter-compartmental clearance, typical value: 0.0261 L/h
  Vp (L), peripheral volume of distribution, typical value: 3.41 L
[2]
  dependence of the incidence of AEs on exposure: not dependent on exposure
[3]; Free IGF-1 High subgroup
  Median KM OS Time, Months: 11.14 Months
[3]; Free IGF-1 Low subgroup
  Median KM OS Time, Months: 8.84 Months
[3]; IGF-2 High subgroup
  Median KM OS Time, Months: 16 Months
[3]; IGF-2 Low subgroup
  Median KM OS Time, Months: 5.59 Months
[3]; IGFBP-1 High subgroup
  Median KM OS Time, Months: 5.59 Months
[3]; IGFBP-2 High subgroup
  Median KM OS Time, Months: 5.52 Months
[3]; IGFBP-2 Low subgroup
  Median KM OS Time, Months: 12.65 Months
[3]; IGFBP-3 High subgroup
  Median KM OS Time, Months: 16 Months
[3]; IGFBP-3 Low subgroup
  Median KM OS Time, Months: 5.52 Months
[3]; IGFBP-4 High subgroup
  Median KM OS Time, Months: 12.09 Months
[3]; IGFBP-4 Low subgroup
  Median KM OS Time, Months: 8.59 Months
[3]; Total IGF-1 High subgroup
  Median KM OS Time, Months: 16 Months
[3]; Total IGF-1 Low subgroup
  Median KM OS Time, Months: 4.67 Months
[4]
  spontaneous bleeding in subjects with thrombocytopenia: no cases of spontaneous bleeding
  thrombocytopenia: Some subjects exhibited grade 3 or 4 thrombocytopenia

Reference: patent US20140037642A1, “METHODS AND COMPOSITIONS RELATING TO INHIBITION OF IGF-1R” (AMGEN INC., priority 2011, published 2014)
